The values below are quoted from earlier work in patent US6916783B2, “Methods for accelerating bone and cartilage growth and repair” (University of Southern California, priority 1998, dated 2005).

For this data set, the target named is T1, AT2 receptor (Homo sapiens, UniProt P50052).
T1 sequence (P50052 1-363): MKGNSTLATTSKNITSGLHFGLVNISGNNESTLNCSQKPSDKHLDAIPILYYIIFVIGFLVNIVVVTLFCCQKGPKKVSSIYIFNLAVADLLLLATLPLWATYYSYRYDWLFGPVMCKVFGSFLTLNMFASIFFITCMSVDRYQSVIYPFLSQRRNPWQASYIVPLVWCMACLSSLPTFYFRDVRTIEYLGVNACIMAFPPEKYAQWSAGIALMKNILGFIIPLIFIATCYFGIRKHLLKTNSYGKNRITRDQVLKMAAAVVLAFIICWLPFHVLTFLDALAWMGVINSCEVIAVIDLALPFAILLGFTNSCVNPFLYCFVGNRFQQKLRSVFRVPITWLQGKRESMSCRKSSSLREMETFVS
To be noted: experimental models tested (Catalioto 1994; Bryson 1992); cited from earlier work.

As to “Asp-Arg-Val-Tyr-Ile-Xaa-Pro-Phe [(p-NH2-Phe)6-AII]”, the binding characteristics entry was “comparable to AT2 antagonists”.
